Target: tetrameric transthyretin (TTR) (UniProt P02766)
Experiment: SPR; OpenSPR (Nicoya), TTR immobilised on a COOH chip by amine coupling; Aβ peptides injected (Aβ C-terminals 2.4-48 µM; Aβ (1–40/42) 0.2-20 µM); PBS pH 6.8 with 0.005% Tween 20; 150 s association, 400 s dissociation; 1:1 interaction model

Kd: 73.6 µM
Substance: Aβ (1–42) (from UniProt P05067 672-713) (peptide; other documents disagree on this pair)

— paper PMC6834639
